Test [1] addresses T1, recombinant human norepinephrine transporter (Homo sapiens, UniProt P23975).
T1 construct: expressed in transfected cells
Kind of test: cell-based. To be noted: RR/SS racemates table; HEK 293 cells; read-out: NOREPINEPHRINE NE REUPTAKE (IC50).

Protein sequences, listed by entry. Tags and fused reporters are not part of them.
UniProt P23975, whole entry: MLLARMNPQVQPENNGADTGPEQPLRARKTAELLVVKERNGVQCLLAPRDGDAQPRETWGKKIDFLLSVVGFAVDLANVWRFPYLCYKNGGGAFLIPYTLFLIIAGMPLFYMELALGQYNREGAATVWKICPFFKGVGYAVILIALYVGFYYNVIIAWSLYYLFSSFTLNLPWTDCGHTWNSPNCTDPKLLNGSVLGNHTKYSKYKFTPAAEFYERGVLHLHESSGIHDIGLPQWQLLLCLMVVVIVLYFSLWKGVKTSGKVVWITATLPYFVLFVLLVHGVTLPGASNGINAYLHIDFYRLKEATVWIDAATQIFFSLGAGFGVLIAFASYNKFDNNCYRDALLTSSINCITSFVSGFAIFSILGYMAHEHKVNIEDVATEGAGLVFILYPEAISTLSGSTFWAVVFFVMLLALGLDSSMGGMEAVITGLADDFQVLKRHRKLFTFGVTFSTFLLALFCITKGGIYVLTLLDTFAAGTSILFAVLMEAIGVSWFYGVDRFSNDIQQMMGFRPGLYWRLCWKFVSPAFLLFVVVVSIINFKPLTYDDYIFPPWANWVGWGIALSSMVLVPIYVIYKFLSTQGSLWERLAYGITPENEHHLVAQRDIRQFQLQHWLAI
UniProt Q01959, whole entry: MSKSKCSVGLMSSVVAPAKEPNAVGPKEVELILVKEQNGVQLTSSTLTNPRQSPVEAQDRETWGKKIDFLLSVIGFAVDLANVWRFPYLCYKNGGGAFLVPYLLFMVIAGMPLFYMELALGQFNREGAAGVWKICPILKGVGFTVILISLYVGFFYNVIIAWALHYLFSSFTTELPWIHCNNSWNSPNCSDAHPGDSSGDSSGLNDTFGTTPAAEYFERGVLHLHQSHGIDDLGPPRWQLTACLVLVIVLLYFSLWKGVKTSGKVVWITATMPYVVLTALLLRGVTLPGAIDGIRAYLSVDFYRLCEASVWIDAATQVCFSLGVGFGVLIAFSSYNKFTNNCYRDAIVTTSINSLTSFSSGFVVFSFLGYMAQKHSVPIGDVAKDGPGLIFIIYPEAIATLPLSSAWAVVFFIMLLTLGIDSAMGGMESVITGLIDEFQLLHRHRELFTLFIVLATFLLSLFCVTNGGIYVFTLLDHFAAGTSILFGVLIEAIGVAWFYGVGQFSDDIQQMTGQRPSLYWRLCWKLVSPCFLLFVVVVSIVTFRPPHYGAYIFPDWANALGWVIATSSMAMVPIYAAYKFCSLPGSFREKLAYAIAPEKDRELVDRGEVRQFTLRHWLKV

Test [2] addresses T2, recombinant human dopamine transporter (Homo sapiens, UniProt Q01959).
T2 construct: expressed in transfected cells
In words: dopamine reuptake inhibition in HEK 293 cells. In kind it is cell-based. Conditions: ratio of NE/DA reuptake IC50; selectivity for dopamine over norepinephrine transporter.

The record followed here is patent publication US20060100243A1 (priority 2004, published 2006).

Take `Clc1ccc(C(C2CCCC2)C2CCCCN2)cc1` (single isomer, unassigned) [K]: in test [1], the IC50 came to 0.044 ± 0.018 µM. Besides, the “NE/DA REUPTAKE” value in test [2] came out at 1.6.

As usually defined, the IC50 is the concentration at which inhibition is half-maximal.
